Laboratory results taken from PubChem BioAssay AID2178 (The Scripps Research Institute Molecular Screening Center, 2009).
The list shows a part of the results, in another mix than the full data. The source made the active and inactive calls.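 How the source made its calls: active means average inhibition across replicates above the hit cutoff set in the earlier primary screen; inactive means the rest.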

Protein sequences, listed by entry. Tags and fused reporters are not part of them.
UniProt P07711, whole entry: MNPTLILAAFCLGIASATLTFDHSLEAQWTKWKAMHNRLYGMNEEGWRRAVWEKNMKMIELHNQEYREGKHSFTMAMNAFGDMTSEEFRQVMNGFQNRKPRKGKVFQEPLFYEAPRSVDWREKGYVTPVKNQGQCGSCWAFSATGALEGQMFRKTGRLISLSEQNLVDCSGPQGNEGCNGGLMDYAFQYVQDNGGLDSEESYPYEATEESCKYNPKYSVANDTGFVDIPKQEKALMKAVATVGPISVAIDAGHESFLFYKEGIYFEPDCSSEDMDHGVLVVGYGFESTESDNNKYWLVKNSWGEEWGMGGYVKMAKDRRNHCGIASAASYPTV

target: Procathepsin L (Homo sapiens) (UniProt P07711); experiment: cathepsin L1 inhibitors, retest, confirmation, counter-screen for PFM18AAP inhibitor project, biochemical, QFRET, triplicate (AID 2178); conditions: purified cathepsin L1, Z-Leu-Arg-MCA fluorescence; at 5.96 µM; active compounds read high;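 further: 0% = median of test compound wells and 100% = Z-Phe-Ala-diazomethylketone 1 µM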
Outline: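 System: Purified cathepsin L1 | Amount: Enzyme 1.5 µg/mL before substrate addition | Also added: Z-Leu-Arg-MCA fluorogenic substrate | Incubation: Enzyme-compound preincubation 30 min, substrate reaction 90 min, 25 °C | Technique: MCA fluorescence measured at substrate addition and at 90 min | Measure: Percent inhibition from fluorescence change | Replicates: Triplicate wells per compound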

SMILES | inhibition
Cc1nc2ccc3ccccc3c2o1.O=[N+]([O-])c1cc([N+](=O)[O-])c(O)c([N+](=O)[O-])c1 | inactive: 2.94%
CP(=S)(Nn1cnnc1)Oc1ccccc1 (configuration not stated) | inactive: -1.71%
